Assay results published in patent US5830452A, “Method for enhancing the anti-tumor therapeutic index of interleukin-2” (Chiron Corporation, priority 1994, dated 1998).

How the values were obtained:
[1] = i.v.; cited from earlier work
[2] = test system: Meth A tumor; assay: Meth A: effect of drug holiday, continuous infusion combined with i.v. bolus, Table 3; assay type: in vivo, mice; settings: for toxicity without drug holiday: mouse, in vivo
Experimental: An experiment was performed to determine how the drug holiday affected the IL-2 toxicity. IL-2 was continuously administered to mice at either of two dose levels. Bolus IL-2 doses were administered (i.v.) to these mice to elevate their IL-2 blood concentration above the continuous infusion level. This administration schedule creates blood concentration peaks, but without the troughs.
* Seven day i.p. pumps combined with i.v. bolus dosing QD × 7.

[3] = test system: strongly immunogenic murine model; settings: 100 IU s.c. around the tumor; cited from earlier work
[4] = Maximum tolerated dose in the patient; assay type: in vivo; settings: s.c.
From the text: As stated above, the blood level must go above a specific threshold. This threshold is the baseline necessary for efficacy and can be as high as is tolerated by the patient. For example, the physician's observations may set the maximum tolerated dose (MID) based on observable signs of toxicity, such as nausea, hypotension, weight gain, fever, etc. Since the disease being treated is typically fatal, it is important to administer as much IL-2 as can be tolerated so that maximum efficacy is possible. This threshold may vary from patient to patient, however, the MTD for a single dose of unmodified IL-2, irrespective of any other dose is typically from 5 to 10 million I.U./kg. The maximum tolerated dose for an i.v. polyethylene glycol modified IL-2 of approximately 160 kD apparent molecular weight is between 16 and 18 million I.U./kg. When polyethylene glycol modified IL-2 is administered s.c. a local reaction (redness and inflammation) is observed at approximately 3.6 million I.U./kg. The MID for Q 8 hours, for 1-5 days (14 total doses in which each dose is delivered by a 15 minute infusion) is approximately 720,000 and 800,000 I.U./kg. […] This time is preferably between 12 hours and 80 hours, more preferably between 24 and 60 hours.

[5] = Plasma clearance of PEG-IL-2 and IL-2 and lethality (FIG. 2); assay type: in vivo, mice; settings: single i.v. bolus, FIG. 2
Experimental: FIG. 2 is a plot of concentration of PEG IL-2 in I.U./ml plasma in mice versus time (hours) for three different dosages of IL-2 given as a single iv bolus.
Additionally, the drug must be below a certain level by a certain time before the next dose is given. The blood level is preferably below 10 I.U./ml plasma, more preferably below 1 I.U./ml plasma, most preferably it is substantially eliminated. The specific time may vary from patient to patient, however, it is generally between 48 and 96 hours.
The purpose of this experiment was to define the peak height and shape of the IL-2 blood concentration curve. Unmodified IL-2 (IL-2) and PEG modified IL-2 (having apparent molecular weights of 95 kD and 160 kD) were given to the mice in one bolus dose. […] Consequently, one can determine the effect of dose and duration by administering IL-2 and PEG-IL-2 molecules that will remain in the body for varying lengths of time.

[6] = Pharmacokinetic parameters of computer-driven IL-2 infusion versus PEG-IL-2 bolus, Table 8; assay type: in vivo, Fisher rats
[7] = CI 0.28 mg/kg + IV 5 mg/kg QD×7
[8] = CI 0.28 mg/kg, seven day i.p. pump
[9] = CI 0.57 mg/kg + IV 5 mg/kg QD×7
[10] = CI 0.57 mg/kg, seven day i.p. pump
[11] = PEG-IL-2 1.6 mg/kg bolus, IL-2 38.4 mg/kg infused over 48 hours, n = 4

Substance: IL-2: Unmodified interleukin-2, recombinant or natural human; lymphokine, T cell growth factor
- share of the dose disappearing from the circulation in the first phase [1]: approximately 75%
- % TGI [2, 7]: 83%
- Cures [2, 7]: 1/2
- % TGI [2, 8]: 55%
- Cures [2, 8]: 0/5
- % TGI [2, 9]: 90%
- Cures [2, 9]: 1/3
- % TGI [2, 10]: 49%
- Cures [2, 10]: 0/5
- % TGI ([2]; IV 5 mg/kg QD×7): 88%
- Cures ([2]; IV 5 mg/kg QD×7): 0/5
- toxicity without drug holiday [2]: a drug holiday is necessary to reduce toxicity
- toxicity without drug holiday ([2]; listed as IL2): No drug holiday period increases IL2 toxicity
- tumor growth inhibition [3]: significant tumor growth inhibition

Substance: 160 kD PEG IL-2: PEG (7,000 MW) modified IL-2 having an apparent molecular weight of 160 kD
- dose at which a local reaction (redness and inflammation) is observed [4]: approximately 3.6 million I.U./kg
- mice dying when IL-2 is not cleared until 96 hours [5]: 5/5
- mice dying when PEG-IL-2 is cleared after 82 hours [5]: 0/5
- α Half life [6, 11]: 0.778 ± 0.128 h
- β Half life [6, 11]: 6.16 h
- AUC ([6]; PEG-IL-2 1.6 mg/kg bolus, IL-2 38.4 mg/kg infused over 48 hours, n = 4, trapezoidal, to time infinity): 6.59 ± 0.45 10^5 U/ml-hr
- PK parameters, PEG-IL-2 versus IL-2 ([6]; initial blood levels, half lives, areas under the curves): not significantly different
